The values below come from patent publication US8603466 (KING S COLLEGE LONDON, dated 2013).

For this assay, the target named is human TSHR on stably transfected CHO cells (human) (UniProt P16473). Kind of assay: cell-based or functional assay.

Consider “Bovine TSH (bTSH, Sigma-Aldrich) (from UniProt P01217 25-120; P01223 21-132) (ligand)”, for which the TSH dose giving maximal cAMP stimulation, NaCl containing buffer came out at 40 µU/ml; the cAMP response to a sub-saturating dose of bTSH, physiological isotonic medium amounted to 157 pmol/ml; the cAMP response to a sub-saturating dose of bTSH, salt free medium was 164 pmol/mL.
